The values below are quoted from earlier work in patent US20250026710A1, “PROCESS FOR PREPARING A BENZOATE SALT OF A 1-(3-AMINOPYRROLIDINE-1-CARBONYL)-3,4-DIPHENYLBENZENE COMPOUND” (Astex Pharmaceuticals, Inc., priority 2021, published 2025).

For this data set the following is noted: rats, dose 32 mg/5 mL/kg.

Structures can show the parent of a compound that is named as a salt.

Take `CC(C)(O)Cc1ccc(-c2ccc(C(=O)N3CC[C@H](N)C3)cc2-c2ccc(C#N)c(F)c2)c(F)c1` [benzoate salt of Compound (A)]: under “compared with free form and sorbic acid salt”, the drug adsorption/exposure entry is reported as “superior drug adsorption/exposure”. Further, the AUC (listed as benzoic acid salt of Compound (A)) is 16.13 µM·h.
